{
  "source": "patent US4902799A",
  "about": "“Bicyclic alkoxy- and alkylthio-substituted aminoalcohols” (Maggioni-Winthrop S.p.A., priority 1985, dated 1990)",
  "test_system": "toxic adrenaline doses",
  "test": "Protection against toxic adrenaline doses",
  "format": "in vivo, mouse (male mice CrI:CD 1(CR) BR)",
  "details": "14.5 mg/kg l-adrenaline i.p. 2 hrs after oral treatment, mortality at 24 hrs",
  "data": [
    {"substance": "Tibalosine", "values": [
      {"measurement": "PD50 (50% protective dose)", "value": 5.5, "unit": "mg/kg/p.o."}
    ]}
  ]
}
